The numbers were not newly measured in patent US7060295B2, “Formulations for the prevention and treatment of insulin resistance and type 2 diabetes mellitus” (ChronoRX LLC, priority 2000, dated 2006), which cites them from elsewhere.

Structures are written as SMILES.

For this series the following is noted: in vivo.

Consider `CN(C)C(=N)N=C(N)N` [Metformin, metformin], for which the excretion result was “excreted unchanged in the urine”.
